# Results as given in publication PMC5803617 (Journal of Cachexia, Sarcopenia and Muscle, 2017).
# Protein sequences, listed by entry. Tags and fused reporters are not part of them.
# UniProt Q91Z63, whole entry, looked up: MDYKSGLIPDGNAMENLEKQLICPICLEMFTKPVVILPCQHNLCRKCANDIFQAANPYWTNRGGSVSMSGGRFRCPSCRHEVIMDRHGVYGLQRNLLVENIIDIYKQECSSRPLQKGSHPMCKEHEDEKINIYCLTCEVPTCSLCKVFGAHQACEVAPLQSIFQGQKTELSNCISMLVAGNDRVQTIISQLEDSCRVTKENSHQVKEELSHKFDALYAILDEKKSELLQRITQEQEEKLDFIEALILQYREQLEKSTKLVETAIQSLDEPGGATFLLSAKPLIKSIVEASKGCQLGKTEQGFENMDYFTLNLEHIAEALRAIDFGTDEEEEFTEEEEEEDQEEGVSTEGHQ
# UniProt P68037, whole entry: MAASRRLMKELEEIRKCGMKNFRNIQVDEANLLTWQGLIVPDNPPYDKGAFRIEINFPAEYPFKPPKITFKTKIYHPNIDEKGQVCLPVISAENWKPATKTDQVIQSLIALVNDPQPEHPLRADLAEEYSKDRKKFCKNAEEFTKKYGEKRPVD
# Target: MuRF1/telethonin complex co-expressed in yeast from pBridge::MuRF1/telethonin (rat) (UniProt Q91Z63)
# Assay: yeast three-hybrid
substance,measurement,value
UBE2L3 fused to the activation domain of GAL4 (from UniProt P68037 1-154) (enzyme),percent positive clones,81%
